In ChEMBL document CHEMBL5357010, “Amine Basicity of Quinoline ATP Synthase Inhibitors Drives Antibacterial Activity against Pseudomonas aeruginosa” (ACS Med Chem Lett, 2024):

Test: Selectivity ratio of IC50 for Pseudomonas aeruginosa 9027 electron transport chain to IC50 for Pseudomonas aeruginosa ATP synthase
Format: toxicity

Compound: c1ccc(CSc2nc3ccccc3cc2CNCCc2cnc[nH]2)cc1
- Ratio IC50: 7
